Values quoted from earlier work as cited in patent publication US20090075974A1, “AGENT FOR PROPHYLAXIS AND TREATMENT OF PANCREATITIS” (UMN Pharma Inc., priority 2005, published 2009).

Sequences of proteins named here, by UniProt entry; tags and fusion partners are left off.
UniProt P28223, whole entry: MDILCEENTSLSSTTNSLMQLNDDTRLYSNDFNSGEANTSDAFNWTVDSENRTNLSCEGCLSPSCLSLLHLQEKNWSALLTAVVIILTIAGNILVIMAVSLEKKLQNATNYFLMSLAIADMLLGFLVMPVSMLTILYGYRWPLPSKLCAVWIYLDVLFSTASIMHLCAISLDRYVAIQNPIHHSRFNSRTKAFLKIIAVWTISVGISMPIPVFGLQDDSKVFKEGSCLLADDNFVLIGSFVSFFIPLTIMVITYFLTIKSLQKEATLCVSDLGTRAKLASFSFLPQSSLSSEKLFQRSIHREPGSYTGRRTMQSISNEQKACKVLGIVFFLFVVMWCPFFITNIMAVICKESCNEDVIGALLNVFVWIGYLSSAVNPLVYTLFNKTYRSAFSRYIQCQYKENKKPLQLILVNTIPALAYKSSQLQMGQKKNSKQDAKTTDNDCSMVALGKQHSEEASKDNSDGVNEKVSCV

Target: 5-HT2A receptor (Homo sapiens, UniProt P28223)
Conditions: literature values, Knight et al. (2004); cited from earlier work

O=C1NCN(c2ccccc2)C12CCN(CCCOc1ccc(F)cc1)CC2 [AMI-193]
5-HT2A pKi ± SEM: 7.65 ± 0.08
